Measurements from ChEMBL document CHEMBL1134540, “ElogD(oct): a tool for lipophilicity determination in drug discovery. 2. Basic and neutral compounds” (J Med Chem, 2001).

Experiment: physchem

SMILES: c1ccc2ccccc2c1
- logD: 3.37
